Results published in PubChem BioAssay AID624169 (The Scripps Research Institute Molecular Screening Center, 2012).
Only a part is listed here, and it is no random draw. Calls of active or inactive are those of the source.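 Rule for the calls: active = activation above a run cutoff, the mean activation of all tested compounds plus 3 SD (cut at about 14% in these data); inactive = the rest.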

Protein sequences, listed by entry. Tags and fused reporters are not part of them.
UniProt P35363, whole entry, looked up: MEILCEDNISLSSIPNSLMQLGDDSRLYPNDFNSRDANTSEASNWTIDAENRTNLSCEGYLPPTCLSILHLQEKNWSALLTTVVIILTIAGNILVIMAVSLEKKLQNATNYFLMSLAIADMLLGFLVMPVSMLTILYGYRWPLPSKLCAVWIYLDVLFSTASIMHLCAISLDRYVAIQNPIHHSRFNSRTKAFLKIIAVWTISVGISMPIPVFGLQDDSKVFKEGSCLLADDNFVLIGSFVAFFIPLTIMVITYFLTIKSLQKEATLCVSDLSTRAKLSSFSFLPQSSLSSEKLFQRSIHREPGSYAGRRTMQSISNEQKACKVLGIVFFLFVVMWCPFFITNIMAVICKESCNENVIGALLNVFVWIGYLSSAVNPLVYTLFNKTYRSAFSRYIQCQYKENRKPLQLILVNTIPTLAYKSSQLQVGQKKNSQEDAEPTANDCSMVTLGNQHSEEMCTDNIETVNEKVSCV

Target: 5-hydroxytryptamine receptor 2A (Mus musculus) (UniProt P35363)
Assay: mouse Htr2a agonists via beta-arrestin recruitment, primary screen, cell-based, luminescence (AID 624169);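 note: 0% = plate median of compound wells and 100% = 30 µM serotonin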
Settings: CHO-K1 mHTR2A beta-arrestin complementation, at 7.6 µM, active compounds read high, percent of 30 µM serotonin response

Structure (SMILES) | activation
Cc1cc(=O)[nH]c(N[N+](=O)[O-])n1 | inactive: -0.96%
O=C(OC1CN2CCC1CC2)C12CC3CC(CC(C3)C1)C2 (stereo not given) | inactive: -1.03%
Cc1c2c(nc3ccccc13)SC(C(Cl)Cl)C2 (stereo not given) | inactive: 4.88%
COc1cc(I)ccc1[As](=O)(O)O | inactive: -2.51%
COc1ccc2nc(NP(=O)(c3ccccc3)c3ccccc3)sc2c1 | inactive: -5.63%
O=P1(N(CCCl)CCCl)OCCCN1CCCl (stereo not given) | inactive: 1.11%
O=P1(N(CCCl)CCCl)Nc2ccccc2N1 | inactive: 3.39%
COc1ccc(N/C(=N/P(=O)(N2CCOCC2)N2CCOCC2)N2CCOCC2)cc1 | inactive: -1.54%
O=[N+]([O-])c1cc(Oc2ccc([N+](=O)[O-])cc2C(F)(F)F)cc([N+](=O)[O-])c1 | inactive: 2.79%
COc1cc(C(=O)NCC2(N3CCOCC3)CCCCC2)ccc1OCC(C)C | inactive: -14.6%
O=[N+]([O-])c1ccc(-c2cc([N+](=O)[O-])c(O)c([N+](=O)[O-])c2)cc1 | inactive: 1.94%
C[As](=O)(O)c1cccc(C(=O)O)c1 | inactive: 1.61%
O=[As](O)(c1ccc(O)cc1)c1ccccc1O | inactive: 2.74%
Cc1ccc2nc3c(c(C)c2c1)CC(C(Cl)Cl)S3 (stereo not given) | inactive: 3.79%
Cc1ccc(OP(=O)(Nc2ccc([N+](=O)[O-])cn2)Oc2ccc(C)cc2)cc1 | inactive: 7.2%
[N-]=[N+]=NC1CCCCC1NC(=O)c1cc([N+](=O)[O-])cc([N+](=O)[O-])c1 (stereo not given) | inactive: -4.67%
CC(C)c1ccc(OP(=O)(Nc2ccccn2)Oc2ccccc2F)cc1 (stereo not given) | inactive: 3.67%
COC(=O)C1(C)COP(=O)(N2CCCCCC2)OC1 (stereo not given) | inactive: 3.27%
ClCCSc1nnc(-c2cccnc2)o1 | inactive: -1.29%
O=[N+]([O-])c1cc([N+](=O)[O-])c(-c2ccn[nH]2)s1 | inactive: 2.24%
CCN(CC)C(=S)SC(NC=O)C(Cl)(Cl)Cl (stereo not given) | inactive: 7.95%
O=C(OC1CN2CCC1CC2)c1cccc2[nH]cnc12 (stereo not given) | inactive: 5.29%
CC(C)NC(=O)NP(=O)(Oc1ccccc1)Oc1ccccc1 | inactive: 2.1%
CC1CCNP(=O)(N(CCCl)CCCl)O1 (stereo not given) | inactive: -1.16%
O=C(O)C(O)c1ccc(N(CCCl)CCCl)cc1 (stereo not given) | inactive: -0.35%

Structure (SMILES) | activation
CCOC(=O)Nc1ccc([As](=O)(O)O)c(O)c1 | inactive: -0.05%
Cc1cc(SC(NC(=O)c2ccccc2)C(Cl)(Cl)Cl)nc(C(C)C)n1 (stereo not given) | inactive: 8.56%
CCCCOc1ccc(C(=O)NCC2(N3CCCCC3)CCCCC2)cc1OC | inactive: -6.95%
COP(=O)(OC)N1CC1c1ccccc1 (stereo not given) | inactive: 3.42%
CCOC(=O)Nc1cccc([As](=O)(O)O)c1 | inactive: -4.47%
O=[N+]([O-])c1ccc(Nc2ccc(Oc3ccc([N+](=O)[O-])cc3[N+](=O)[O-])cc2)c([N+](=O)[O-])c1 | inactive: 0.57%
Cc1cc(SC(NC=O)C(Cl)(Cl)Cl)ncn1 (stereo not given) | inactive: 4.99%
O=P(Nc1ccccn1)(c1cccc2ccccc12)c1cccc2ccccc12 | inactive: 2.68%
COC(=O)C1(C)COP(=O)(N2CCCC2)OC1 (stereo not given) | inactive: -3.96%
COP1(=S)c2c(C)nn(CCC#N)c2N=C(c2ccc(F)cc2)N1C (stereo not given) | inactive: -5.85%
O=C(Nc1ccncc1[N+](=O)[O-])c1ccc([N+](=O)[O-])cc1[N+](=O)[O-] | inactive: 7.68%
O=C(COc1ccccc1)OC1CN2CCC1CC2 (stereo not given) | inactive: -0.81%
O=C(O)C(=O)c1ccc(N(CCCl)CCCl)cc1 | inactive: -0.34%
CCOC(=O)c1ccc(NC(=O)C(C)(CCl)SC)cc1 (stereo not given) | inactive: -1.86%
CSc1ccc(Nc2c([N+](=O)[O-])cc([N+](=O)[O-])cc2[N+](=O)[O-])cc1 | inactive: -11.1%
O=C(OC1CN2CCC1CC2)c1cccc([N+](=O)[O-])c1 (stereo not given) | inactive: 3.13%
CCC(C)N(CC(C)C)C(=S)SC(NC(C)=O)C(Cl)(Cl)Cl (stereo not given) | inactive: 0.4%
COc1ccc(C2=NCC(CBr)S2)cc1 (stereo not given) | inactive: -3.83%
CC(=O)N1C2C3N(C(C)=O)C1C1N(C(C)=O)C(C(N1C(C)=O)N3C(C)=O)N2C(C)=O | inactive: -0.87%
O=[N+]([O-])c1cccc2n[nH]nc12 | inactive: 1.6%
O=[N+]([O-])c1cc([N+](=O)[O-])c(CCNc2ccccc2)c([N+](=O)[O-])c1 | inactive: -8.41%
CCc1nc2c(n1)c1c(non1O)c1c2no[n+]1[O-] | inactive: 1.1%
Cc1ccc(NP(=O)(Oc2ccccc2)Oc2ccccc2)nc1 | inactive: -4.92%
C[N+]1=C2C=CC=CC=C2SC12C([N+](=O)[O-])=CC([N+](=O)[O-])=C[C-]2[N+](=O)[O-] (stereo not given) | inactive: -11.2%
Nc1ccc([As](=O)(O)c2ccc(N)cc2)cc1 | inactive: 3.32%
